Consider one compound from patent US20050020544A1, “Bicyclic CB2 cannabinoid receptor ligands” (priority 2002, published 2005).

The chains behind the UniProt entries cited, without tags or fusion partners.
UniProt P34972, whole entry: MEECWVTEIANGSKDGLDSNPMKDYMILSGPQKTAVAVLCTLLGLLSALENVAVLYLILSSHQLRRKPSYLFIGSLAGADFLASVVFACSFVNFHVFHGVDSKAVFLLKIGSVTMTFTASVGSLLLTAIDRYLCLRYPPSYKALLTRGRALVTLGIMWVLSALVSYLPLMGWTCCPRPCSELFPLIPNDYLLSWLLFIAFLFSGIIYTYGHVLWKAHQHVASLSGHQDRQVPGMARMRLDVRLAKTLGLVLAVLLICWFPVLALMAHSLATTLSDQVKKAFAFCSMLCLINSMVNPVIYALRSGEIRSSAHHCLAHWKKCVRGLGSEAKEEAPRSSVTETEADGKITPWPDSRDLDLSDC

SMILES strings stand for the structures.

For this test, the target named is human CB2 receptor (Homo sapiens, UniProt P34972). Kind of test: biochemical. Type of test: binding. Also noted: purchased Perkin Elmer/NEN; host or cells: CHO cells, stably transfected (membranes). As for the experimental part:
In the present invention, binding affinity is represented by the IC50 value, namely the concentration of a test compound that will displace 50% of a radiolabeled agonist from the CB receptors. […] Preferably these ratios will be obtained for human CB1 and CB2 receptors. The selectivity toward CB2, denoted CB2/CB1 affinity, is calculated as the IC50 value obtained by the test compound for the displacement of the CB1 specific radioligand divided by the IC50 value obtained for the displacement of the CB2 specific radioligand, i.e. the IC50 CB1/IC50 CB2.
The affinities of the novel bicyclic analogs to the CB2 receptor were determined by their ability to displace [^3H]WIN 55212-2 from the receptor in membranes derived from hCB2 stably transfected CHO cells (Perkin Elmer/NEN). Membranes were diluted in assay buffer (10 mM HEPES, 1 mM MgCl2, 1 mM EDTA, 0.3 mg/ml BSA, pH=7.4) to 500 μg protein/ml. […] Non-specific binding was measured by the addition of 10 μM CP 55940. […] Filters for all binding assays were counted in a β-counter and log of analog concentration versus % of binding was plotted. […]
Binding to CB1 is measured by competitive inhibition of [^3H]CP55940 in HEK-293 cells stably transfected with the human CB1 receptor gene. Binding to CB2 is measured by competitive inhibition of [^3H]WIN55212-2 in CHO cells stably transfected with the human CB2 receptor gene.

In turn, `CCCCCCC(C)(C)c1cc(OC)c(C2C=C(CO)C3CC2C3(C)C)c(OC)c1` (single isomer, unassigned; (+)) [HU-308, (+) {4-[4-(1,1-dimethylheptyl)-2,6-dimethoxy-phenyl]-6,6-dimethyl-bicyclo[3.1.1]hept-2-en-2-yl}-methanol, reference compound] came in with an IC50 of 13.3 nM.
